Measurements: paper PMC3179181 (Journal of medicinal chemistry, 2010)

Assays:
[1] = rat, PO 10 mg/kg, […] post dose
[2] = well-stirred model, from rat microsomal CLint
[3] = in vitro; conditions: rat, microsomes, pH 7.4

Compound: C[C@@H](CN1CCC(n2c(=O)[nH]c3cc(Br)ccc32)CC1)NC(=O)[C@H]1C[C@@H]1c1ccccc1 [compound 14]
- Brain [1]: below quantitation
- predicted hepatic clearance (CLhep) [2]: 63 mL/min/kg
- CLint scaled at 1 µM [3]: 660 mL/min/kg
